Test results taken from patent publication US8822519B2, “Compound with agitation effect on peroxisome proliferator-activated receptor process for its preparation and use thereof” (Zhejiang Hisun Pharmaceutical Co., Ltd., priority 2008, dated 2014).

Key:
PPARδ = target: T1, PPARδ (Homo sapiens, UniProt Q03181); experiment: In vitro screening of nuclear receptor agonist: luciferase reporter gene assay in HepG2 cells; type: cell-based; settings: RXR/PPARδ luciferase reporter gene, 24 h treatment
T1 construct: expressed in transfected cells; host or cells: HepG2 (human hepatocarcinoma, ATCC)
T1 sequence (Q03181 1-441): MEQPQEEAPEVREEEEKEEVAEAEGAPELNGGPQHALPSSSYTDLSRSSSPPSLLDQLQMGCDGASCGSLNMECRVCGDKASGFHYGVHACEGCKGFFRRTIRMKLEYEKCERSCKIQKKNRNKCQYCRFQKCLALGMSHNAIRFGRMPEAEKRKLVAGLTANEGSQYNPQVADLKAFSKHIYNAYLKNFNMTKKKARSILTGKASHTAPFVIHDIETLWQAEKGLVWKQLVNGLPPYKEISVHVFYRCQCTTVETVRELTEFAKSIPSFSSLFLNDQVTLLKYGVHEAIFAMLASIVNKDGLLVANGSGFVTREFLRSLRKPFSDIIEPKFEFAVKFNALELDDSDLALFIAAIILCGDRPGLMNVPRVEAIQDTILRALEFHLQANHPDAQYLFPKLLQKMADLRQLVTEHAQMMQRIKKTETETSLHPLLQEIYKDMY
T1 sequence (P19793 1-462 partner): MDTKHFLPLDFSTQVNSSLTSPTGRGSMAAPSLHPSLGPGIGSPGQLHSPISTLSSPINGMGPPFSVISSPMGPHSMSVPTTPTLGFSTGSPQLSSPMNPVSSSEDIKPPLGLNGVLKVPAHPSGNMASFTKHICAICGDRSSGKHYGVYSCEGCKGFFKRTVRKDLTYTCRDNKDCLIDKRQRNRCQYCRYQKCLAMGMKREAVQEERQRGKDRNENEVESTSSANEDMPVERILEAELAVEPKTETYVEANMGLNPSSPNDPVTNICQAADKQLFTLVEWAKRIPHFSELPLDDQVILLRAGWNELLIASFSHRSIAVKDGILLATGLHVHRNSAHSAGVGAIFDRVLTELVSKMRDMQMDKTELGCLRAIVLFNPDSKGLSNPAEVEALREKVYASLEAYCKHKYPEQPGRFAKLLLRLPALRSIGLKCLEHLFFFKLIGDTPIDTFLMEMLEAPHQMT
Excerpt: Using a reporter gene protocol, the screening model for screening a nuclear receptor agonist in a living cell is designed on a basis of the principal that an activated nuclear receptor can activate transcription of its downstream gene. A reporter gene plasmid is constructed, in which the DNA binding sequence for the nuclear receptor (NRE) is inserted upstream of the luciferase gene, so that the expression of the luciferase gene is placed under the control of the nuclear receptor. Then, the reporter gene plasmid and the nuclear receptor are simultaneously transferred into a cell, and the nuclear receptor is activated when the nuclear receptor agonist is present in the cell culture medium. Then the activated receptor is able to induce the expression of the luciferase gene, while the amount of the luciferase can be determined through its luminous substrate. In this way, the intensity of activation by the compound on the nuclear receptor could be known by observing the luminescence intensity. […] The experimental results are expressed as relative fold activation, with a value of 1 for the solvent control, and the greater the fold is, the higher the activation capacity represents. […]

[1] = test system: Macaca rhesus model of hyperlipidemia; experiment: Macaca rhesus model of hyperlipidemia, hematological indicators and ELISA; type: in vivo; settings: ELISA, three months of administration, in words
Excerpt: Afterwards, efficacy of the medicament of the A-3 was confirmed in the Macaca rhesus model of hyperlipidemia. After three months of administration, blood samples were taken from the femoral vein for the determination of hematological indicators, and the determination of the insulin, apolipoprotein A-1 (apoA-1) and apolipoprotein B-100 (apoB-100) by ELISA.

[2] = Pharmacokinetics: plasma concentration-time curve; type: in vivo; settings: SD rats, gastric lavage, 50, 10 and 2 mg/kg
Experimental: 36 of SD rats were selected with a female-to-male ratio of 1:1 and a body weight in the range of 150-170 g, assigned them into two dosage groups, and they were administrated with A-1 and A-3, respectively; while 3 dosage subgroups were designed in each dosage group with the dose concentrations being 50, 10, and 2 mg/kg, six animals each subgroup with the female-to-male ratio of 1:1. All of the rats were fasting over 12 h and given ad libitum access to water. The dosing volume was 10 ml/kg, and blood samples of 0.4-0.5 ml were taken from the vena orbitalis posterior of the waken animals at different time points post-gastric lavage and centrifuged at 5000 rpm for 10 min. 200 μL of plasma sample was precisely measured, then supplemented with 200 μL acetonitrile, vortexed to evenness, left stand for 5 min, and centrifuged (14000 rpm, 5 min). The supernatant was collected and then centrifuged again (14000 rpm, 5 min). The resulting supernatant was gathered and subjected to HPLC injection. Time points for blood sampling were respectively: 0, 0.5, 1, 2, 4, 6, 8, 10, 12, 24, 36, 48 and 72 h, and the peak area for each time point was the average of those obtained from 6 rats at the same time point. Plasma concentrations were calculated and the medicament concentration-time curve was plotted.

2-(3-methyl-4-(1-(3-(4-methyl-5-oxo-1-(4-trifluoromethyl-phenyl)-4,5-dihydrogen-1H-1,2,4-triazolyl))-benzyloxy)-phenylthio)-acetic acid [Compound A-3]
EC50 (PPARδ): 10 nM
ratio of apoA-1 to apoB-100 [1]: approached to that in normal animals
t1/2 [2]: 10 to 12 h
